For assay [1], the target named is Phosphatidylinositol 3-kinase catalytic subunit type 3 (Homo sapiens, UniProt Q8NEB9). As to the kind of experiment: Inhibition of human VPS34 at 1 uM.
Assay [2] deals with Phosphatidylinositol 4,5-bisphosphate 3-kinase catalytic subunit gamma isoform (Homo sapiens) (UniProt P48736). The assay is described as follows: Inhibition of PI3Kgamma (unknown origin) at 1 uM.
The target in assay [3] is Phosphatidylinositol 4-phosphate 3-kinase C2 domain-containing subunit beta (Homo sapiens, UniProt O00750). The assay is described as follows: Inhibition of PI3KC2beta (unknown origin) at 1 uM.
For assay [4], the target named is T1, Phosphatidylinositol 4,5-bisphosphate 3-kinase catalytic subunit alpha isoform (Homo sapiens, UniProt P42336).
Assay [5] concerns the target T1, Phosphatidylinositol 4,5-bisphosphate 3-kinase catalytic subunit alpha isoform. This is another data set of the same source.

Chains of the proteins cited; added tags and fusions are not shown. Lines headed by an entry give the natural chain unless they say otherwise; changes in a name come on top.
UniProt Q8NEB9, whole entry: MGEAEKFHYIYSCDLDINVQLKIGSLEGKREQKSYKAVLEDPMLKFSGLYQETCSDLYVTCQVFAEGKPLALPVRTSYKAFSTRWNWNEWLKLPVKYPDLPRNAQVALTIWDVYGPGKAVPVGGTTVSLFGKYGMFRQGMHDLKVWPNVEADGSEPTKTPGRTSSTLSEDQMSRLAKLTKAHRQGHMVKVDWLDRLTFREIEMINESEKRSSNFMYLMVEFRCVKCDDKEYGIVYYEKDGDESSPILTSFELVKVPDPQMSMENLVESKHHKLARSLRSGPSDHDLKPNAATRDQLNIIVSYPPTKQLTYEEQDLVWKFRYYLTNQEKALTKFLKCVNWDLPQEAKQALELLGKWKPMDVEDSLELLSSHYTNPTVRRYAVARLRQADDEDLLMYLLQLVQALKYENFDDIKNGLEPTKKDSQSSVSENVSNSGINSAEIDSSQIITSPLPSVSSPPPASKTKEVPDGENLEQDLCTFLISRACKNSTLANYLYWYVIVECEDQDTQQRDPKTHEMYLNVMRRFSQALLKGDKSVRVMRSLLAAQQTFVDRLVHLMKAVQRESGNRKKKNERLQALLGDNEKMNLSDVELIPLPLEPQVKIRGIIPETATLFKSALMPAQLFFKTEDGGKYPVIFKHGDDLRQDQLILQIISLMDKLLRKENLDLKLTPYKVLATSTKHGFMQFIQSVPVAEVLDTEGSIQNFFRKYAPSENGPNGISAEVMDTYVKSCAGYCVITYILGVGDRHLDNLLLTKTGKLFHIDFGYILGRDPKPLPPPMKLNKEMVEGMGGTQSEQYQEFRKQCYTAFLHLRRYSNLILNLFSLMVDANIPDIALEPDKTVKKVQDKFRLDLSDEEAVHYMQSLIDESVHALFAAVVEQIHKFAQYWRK
UniProt P48736: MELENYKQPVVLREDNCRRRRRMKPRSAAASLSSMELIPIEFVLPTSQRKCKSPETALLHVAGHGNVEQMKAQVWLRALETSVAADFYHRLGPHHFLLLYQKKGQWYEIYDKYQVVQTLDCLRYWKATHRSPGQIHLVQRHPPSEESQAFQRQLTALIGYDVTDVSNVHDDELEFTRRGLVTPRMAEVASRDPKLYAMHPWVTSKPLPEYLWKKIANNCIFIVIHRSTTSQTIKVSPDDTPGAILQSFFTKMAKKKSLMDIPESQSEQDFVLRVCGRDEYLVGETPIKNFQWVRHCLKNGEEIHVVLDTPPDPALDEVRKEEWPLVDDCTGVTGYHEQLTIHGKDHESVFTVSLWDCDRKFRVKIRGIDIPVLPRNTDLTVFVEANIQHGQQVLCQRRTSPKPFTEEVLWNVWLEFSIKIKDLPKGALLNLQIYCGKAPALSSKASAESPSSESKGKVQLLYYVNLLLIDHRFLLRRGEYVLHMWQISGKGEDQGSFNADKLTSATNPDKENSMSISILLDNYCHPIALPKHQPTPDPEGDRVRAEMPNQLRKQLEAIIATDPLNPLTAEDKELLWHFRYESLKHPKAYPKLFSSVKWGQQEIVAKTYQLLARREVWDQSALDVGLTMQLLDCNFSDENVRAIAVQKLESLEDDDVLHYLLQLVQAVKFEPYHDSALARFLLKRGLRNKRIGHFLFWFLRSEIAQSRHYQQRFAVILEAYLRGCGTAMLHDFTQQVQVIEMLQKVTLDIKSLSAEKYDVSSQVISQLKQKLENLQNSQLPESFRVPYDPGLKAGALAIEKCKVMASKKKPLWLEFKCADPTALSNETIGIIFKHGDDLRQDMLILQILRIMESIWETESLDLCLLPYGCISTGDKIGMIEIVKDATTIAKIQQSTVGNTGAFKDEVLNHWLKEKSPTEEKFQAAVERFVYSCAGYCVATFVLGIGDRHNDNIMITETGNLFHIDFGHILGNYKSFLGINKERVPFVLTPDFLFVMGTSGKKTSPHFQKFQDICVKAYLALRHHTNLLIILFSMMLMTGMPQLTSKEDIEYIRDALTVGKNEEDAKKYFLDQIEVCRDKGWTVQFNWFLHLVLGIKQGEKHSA
UniProt O00750: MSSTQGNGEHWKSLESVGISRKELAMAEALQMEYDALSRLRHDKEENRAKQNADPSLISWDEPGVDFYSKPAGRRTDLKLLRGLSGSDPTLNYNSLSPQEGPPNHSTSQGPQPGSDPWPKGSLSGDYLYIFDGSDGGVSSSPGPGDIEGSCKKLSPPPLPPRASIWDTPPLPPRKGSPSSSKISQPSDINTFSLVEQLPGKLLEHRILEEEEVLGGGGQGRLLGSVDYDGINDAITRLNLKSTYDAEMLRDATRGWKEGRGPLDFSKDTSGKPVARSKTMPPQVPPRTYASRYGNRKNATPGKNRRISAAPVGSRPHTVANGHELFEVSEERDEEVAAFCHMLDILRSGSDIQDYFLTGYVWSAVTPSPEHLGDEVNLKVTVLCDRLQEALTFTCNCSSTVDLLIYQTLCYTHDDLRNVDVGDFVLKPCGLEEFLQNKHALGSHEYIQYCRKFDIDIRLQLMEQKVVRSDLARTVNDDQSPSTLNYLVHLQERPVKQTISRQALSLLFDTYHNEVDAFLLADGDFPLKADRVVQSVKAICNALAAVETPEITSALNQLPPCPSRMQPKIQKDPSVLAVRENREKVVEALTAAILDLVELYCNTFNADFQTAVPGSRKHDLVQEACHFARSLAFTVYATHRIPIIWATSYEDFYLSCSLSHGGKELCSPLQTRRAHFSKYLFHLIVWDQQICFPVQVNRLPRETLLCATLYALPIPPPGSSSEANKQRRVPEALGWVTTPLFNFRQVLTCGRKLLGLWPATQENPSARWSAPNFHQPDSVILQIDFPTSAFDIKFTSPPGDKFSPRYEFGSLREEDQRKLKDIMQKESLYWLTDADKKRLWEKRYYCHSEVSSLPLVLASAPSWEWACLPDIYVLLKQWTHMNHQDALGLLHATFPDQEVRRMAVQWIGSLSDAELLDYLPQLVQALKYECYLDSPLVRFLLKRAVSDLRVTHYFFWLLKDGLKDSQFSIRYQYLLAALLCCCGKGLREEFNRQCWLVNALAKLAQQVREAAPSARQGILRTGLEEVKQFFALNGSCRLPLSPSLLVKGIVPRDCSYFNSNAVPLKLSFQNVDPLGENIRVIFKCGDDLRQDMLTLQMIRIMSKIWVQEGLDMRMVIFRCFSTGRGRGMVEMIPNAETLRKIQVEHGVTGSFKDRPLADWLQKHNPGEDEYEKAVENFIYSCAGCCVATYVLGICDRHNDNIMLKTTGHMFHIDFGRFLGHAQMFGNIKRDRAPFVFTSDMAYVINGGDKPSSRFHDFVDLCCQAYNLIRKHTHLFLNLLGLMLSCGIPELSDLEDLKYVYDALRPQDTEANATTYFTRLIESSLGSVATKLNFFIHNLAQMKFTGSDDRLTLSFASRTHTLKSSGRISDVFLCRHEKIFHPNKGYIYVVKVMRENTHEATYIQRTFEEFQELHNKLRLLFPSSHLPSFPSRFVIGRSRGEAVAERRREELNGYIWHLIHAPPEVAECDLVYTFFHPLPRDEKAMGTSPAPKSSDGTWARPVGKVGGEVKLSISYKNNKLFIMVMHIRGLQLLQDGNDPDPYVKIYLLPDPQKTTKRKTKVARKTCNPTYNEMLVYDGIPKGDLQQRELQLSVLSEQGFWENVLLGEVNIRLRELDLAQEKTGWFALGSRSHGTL
UniProt P42336, whole entry: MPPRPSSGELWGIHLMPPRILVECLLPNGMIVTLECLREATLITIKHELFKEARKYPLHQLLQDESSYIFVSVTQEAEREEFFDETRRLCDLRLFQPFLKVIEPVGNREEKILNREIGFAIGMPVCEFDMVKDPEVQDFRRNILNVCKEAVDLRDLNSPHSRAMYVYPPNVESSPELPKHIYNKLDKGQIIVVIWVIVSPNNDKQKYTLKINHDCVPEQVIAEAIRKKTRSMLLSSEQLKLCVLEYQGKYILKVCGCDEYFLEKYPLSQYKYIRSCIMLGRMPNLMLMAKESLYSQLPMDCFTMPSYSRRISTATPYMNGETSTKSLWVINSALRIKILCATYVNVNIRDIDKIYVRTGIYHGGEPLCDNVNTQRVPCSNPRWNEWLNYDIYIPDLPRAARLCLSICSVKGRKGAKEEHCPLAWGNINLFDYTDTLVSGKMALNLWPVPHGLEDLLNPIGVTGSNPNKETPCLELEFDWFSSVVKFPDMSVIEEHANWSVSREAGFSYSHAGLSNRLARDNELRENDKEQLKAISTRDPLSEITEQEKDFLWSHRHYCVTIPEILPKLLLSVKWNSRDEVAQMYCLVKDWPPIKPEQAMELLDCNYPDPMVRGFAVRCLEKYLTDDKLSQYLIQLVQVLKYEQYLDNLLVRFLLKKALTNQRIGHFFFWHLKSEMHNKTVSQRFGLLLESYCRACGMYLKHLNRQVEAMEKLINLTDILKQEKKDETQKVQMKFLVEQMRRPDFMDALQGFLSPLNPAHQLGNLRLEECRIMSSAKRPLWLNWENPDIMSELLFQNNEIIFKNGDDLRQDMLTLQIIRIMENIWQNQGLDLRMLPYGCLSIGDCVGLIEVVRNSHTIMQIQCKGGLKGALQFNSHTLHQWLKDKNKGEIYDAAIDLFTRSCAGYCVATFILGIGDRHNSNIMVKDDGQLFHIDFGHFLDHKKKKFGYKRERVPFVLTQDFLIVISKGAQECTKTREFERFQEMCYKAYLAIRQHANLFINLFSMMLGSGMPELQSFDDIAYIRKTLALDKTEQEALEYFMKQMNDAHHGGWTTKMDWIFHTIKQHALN

As for `Cc1nc(-c2cn3c(n2)-c2ccc(-c4cnn(C(C)(C)C(N)=O)c4)cc2OCC3)n(C(C)C)n1` [TASELISIB], the figures for the inhibition in assay [1], in assay [2] and in assay [3] were 69.9%, 90.6% and 80.4%, respectively. In addition, the values for the IC50 in assay [4] and in assay [5] were 31 nM and 4 nM, respectively.

As a reminder, the inhibition is the drop in the measured response relative to a control, in per cent. A high value points to a strong effect. In general, IC50 refers to the concentration that gives 50% inhibition.

Values taken from ChEMBL document CHEMBL2384988, “Discovery of 2-{3-[2-(1-isopropyl-3-methyl-1H-1,2-4-triazol-5-yl)-5,6-dihydrobenzo[f]imidazo[1,2-d][1,4]oxazepin-9-yl]-1H-pyrazol-1-yl}-2-methylpropanamide (GDC-0032): a β-sparing phosphoinositide 3-kinase inhibitor with high unbound exposure and robust in vivo antitumor activity” (J Med Chem, 2013).
